In PubChem BioAssay AID567 (The Scripps Research Institute Molecular Screening Center, 2006):
Only a part is listed here, and it is no random draw. Some tests of the compounds listed are not included; inactive here does not mean inactive elsewhere. The source made the active and inactive calls.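 The calls were made as follows: active = activation above the screen-wide mean activation plus 3 SD (cut at about 19% in these data); inactive = the rest.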

Chains of the proteins cited; added tags and fusions are not shown.
UniProt P08908, whole entry: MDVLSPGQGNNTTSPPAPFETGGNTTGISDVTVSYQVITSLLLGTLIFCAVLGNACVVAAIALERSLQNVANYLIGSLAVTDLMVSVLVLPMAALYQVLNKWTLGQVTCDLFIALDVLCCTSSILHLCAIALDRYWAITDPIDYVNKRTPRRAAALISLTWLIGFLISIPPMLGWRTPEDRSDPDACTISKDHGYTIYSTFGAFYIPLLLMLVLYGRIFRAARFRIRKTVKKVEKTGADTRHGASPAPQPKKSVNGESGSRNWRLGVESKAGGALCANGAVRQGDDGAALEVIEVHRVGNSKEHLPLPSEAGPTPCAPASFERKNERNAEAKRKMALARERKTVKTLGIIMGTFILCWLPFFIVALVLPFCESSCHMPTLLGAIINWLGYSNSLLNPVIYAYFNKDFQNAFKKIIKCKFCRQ

What follows are compounds tested against 5-hydroxytryptamine receptor 1A (Homo sapiens) (UniProt P08908) (assay: agonism at serotonin HTR1A receptor – cell-based, CHO, Ga15 NFAT-bla reporter, primary screen (AID 567;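 also: 0% = DMSO wells and 100% = 5-CT at EC100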)). Details: CHO 5-HT1a Ga15 NFAT-bla reporter, FRET ratio; at 10 µM; stronger effect = higher value; 0% basal, 100% maximal reference agonist.

| Structure (SMILES) | activation |
| --- | --- |
| O=C(OC1CN2CCC1CC2)C(CO)(c1ccccc1)c1ccccc1 (configuration not stated) | inactive: -0.93% |
| CN(C)c1cccc(C(=O)NCC2(N(C)C)CCCCC2)c1 | inactive: -0.9% |
